Assay results reported in article PMC4908412, “β-arrestin-1 contributes to brown fat function and directly interacts with PPARα and PPARγ” (Scientific Reports, 2016).

Tests used:
[1] = molecular target: T1, PPARγ-ligand binding domain (amino acids 204–477) (human, UniProt P37231-2 204-477, biotinylated for biolayer interferometry; 15N-labeled for NMR); assay: BLI; Octet Red 96; 50 μg/ml biotinylated PPARα-LBD or PPARγ-LBD (or their mutants) immobilised on streptavidin biosensors; analyte β-arrestin-1, βarr1M or peptides in solution (single 2 μM or serial dilutions, β-arrestin-1 0.5–32 μM); 25 °C; 2:1 heterogeneous ligand model and steady-state analysis; settings: both partners purified
T1 construct: The His tag is used for capture in the pulldown; also called PPARγ-LBD; wild-type PPARγ; source: E. coli BL21 (DE3)-CodonPlus, purified; not shown: His6, N-terminal, kept
T1 sequence (looked up): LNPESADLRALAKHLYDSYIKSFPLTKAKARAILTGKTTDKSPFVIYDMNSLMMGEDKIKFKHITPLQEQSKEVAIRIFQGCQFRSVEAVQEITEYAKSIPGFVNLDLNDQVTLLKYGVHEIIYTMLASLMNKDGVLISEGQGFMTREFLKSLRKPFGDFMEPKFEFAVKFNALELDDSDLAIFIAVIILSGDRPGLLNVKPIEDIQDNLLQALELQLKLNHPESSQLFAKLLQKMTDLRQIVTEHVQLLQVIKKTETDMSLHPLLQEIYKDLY

[2] = molecular target: T1, PPARγ-ligand binding domain (amino …); assay: as above; settings: both partners purified; remark: listed apart in the source

B1: β-arrestin-1 (recombinant rattus β-arrestin-1) (natural protein, UniProt P29066 1-418, looked up)
chain: MGDKGTRVFKKASPNGKLTVYLGKRDFVDHIDLVDPVDGVVLVDPEYLKERRVYVTLTCAFRYGREDLDVLGLTFRKDLFVANVQSFPPAPEDKKPLTRLQERLIKKLGEHAYPFTFEIPPNLPCSVTLQPGPEDTGKACGVDYEVKAFCAENLEEKIHKRNSVRLVIRKVQYAPERPGPQPTAETTRQFLMSDKPLHLEASLDKEIYYHGEPISVNVHVTNNTNKTVKKIKISVRQYADICLFNTAQYKCPVAMEEADDTVAPSSTFCKVYTLTPFLANNREKRGLALDGKLKHEDTNLASSTLLREGANREILGIIVSYKVKVKLVVSRGGLLGDLASSDVAVELPFTLMHPKPKEEPPHREVPESETPVDTNLIELDTNDDDIVFEDFARQRLKGMKDDKDEEDDGTGSPHLNNR
notes: β-arrestin-1, rat (rattus), recombinant; also called βarr1; wild-type β-arrestin-1
maximum response [1]: 0.77 nm
KD1 (2:1 HL model) [2]: 2.66 µM
KD2 (2:1 HL model) [2]: 0.21 µM
